# Ab-14 heavy chain CDR variants: yeast mating affinities

The measurements come from Li et al. 2023 (doi:10.1038/s41467-023-39022-2) through the FLAb antibody collection.

All variants were tested on one target, the spike HR2 peptide PDVDLGDISGINAS (SARS-CoV-2).

Parent: Ab-14, a human scFv built as VH, three GGGGS repeats, VL. Only the CDRs of the heavy chain vary.
VH: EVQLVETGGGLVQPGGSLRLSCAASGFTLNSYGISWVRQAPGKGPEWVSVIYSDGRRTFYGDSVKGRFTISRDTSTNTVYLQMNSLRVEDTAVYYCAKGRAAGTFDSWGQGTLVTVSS
VL: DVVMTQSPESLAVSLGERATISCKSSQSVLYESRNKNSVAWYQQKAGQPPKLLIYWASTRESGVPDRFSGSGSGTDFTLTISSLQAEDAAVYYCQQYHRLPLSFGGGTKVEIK

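These sequences belong to a second round, designed from the earlier measurements on random variants of the parent. Their group label is 14H_En_Gen (En: ensemble of fine-tuned language models; Gen: genetic algorithm). The assay is AlphaSeq: two haploid yeast populations carry antibody and antigen on their surface. Mating (16 h, 30 °C) was followed by selection of diploids and sequencing of their barcodes. The ratio of observed to expected reads was calibrated, replicate by replicate, on BCL2-family standards whose Kd was known from biolayer interferometry. The assay was run in six technical replicates.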

The parent's heavy chain CDRs are GFTLNSYGIS, VIYSDGRRTFYGDSVK, GRAAGTFDS; each variant's own CDRs replace them letter for letter.
The read-out is the apparent dissociation constant on a log10 scale (nM): the lower, the stronger.
Nonspecific signal, from three strains lacking the peptide, appeared in 1% of pairings of all heavy chain designs, centred on 2.08 (5% of these signals below 0.84); values are not corrected for it. The control count says in how many pairings with the empty strains this scFv gave a signal, with their mean in brackets.
A sequence measured in both rounds can read differently, since the two assays cover different ranges.
The authors' rule: three or more of the six replicates give a measured affinity, fewer mean a poor binder.
The parent sequence was in this pool as ten entries: three were never detected, three once, and four in most replicates, with averages from 0.34 to 2.37.

CDR-H1 | CDR-H2 | CDR-H3 | replicates, log10 nM | signal with controls
GFDLNEYGIS | VIYADGQRTAYADSVK | GQVAGTFDL | -0.07 -0.43 -0.25 -0.45 -0.49 -0.31 | 0 of 18
GFDLNEYGIS | VIYADGQRTAYADDVK | GQNAGTFDV | -0.27 -0.82 -0.77 -1.36 -1.11 -0.86 | 0 of 18
GFDLNEYGIS | VIYADGVRTAYSDSVK | GEQAGTFDV | 0.27 0.36 0.20 -0.20 0.07 0.07 | 0 of 18
GFDLEDYGIS | VIYADGMRTAYSDSVK | GNVAGTFDT | -0.50 -0.11 -0.33 -0.01 -0.39 -0.20 | 0 of 18
GFDLNEYGIS | VIYADGMRSAYADSVK | GNQAGTFDV | -0.11 0.06 -0.52 -0.30 0.05 -0.02 | 2 of 18 (2.03)
GFDLNEYGIS | VIYADGMRTAYADSVK | GENAGSFDV | 1.32 0.25 -0.04 1.83 1.12 0.76 | 0 of 18
GFDLNEYGIS | VIYADGVRTAYSDSVK | GNVAGTFDM | -0.67 -0.63 -0.74 -0.83 -0.76 -0.55 | 1 of 18 (1.79)
GFDLDEYGIS | VIYADGMRTAYTDSVK | GEVAGTFDT | -0.21 -0.01 0.00 -0.06 -0.12 0.30 | 1 of 18 (2.54)
GFDLNEYGIS | VIYADGQRTAYSDSVK | GSNAGTFDV | -0.20 -0.75 -0.78 -0.58 -0.94 -0.49 | 0 of 18
GFDLNEYGIS | VIYADGMRTAYADSVK | GEIAGTFDV | -0.06 -0.20 -0.25 -0.26 -0.36 0.14 | 0 of 18
GFNLDEYGIS | VIYADGMRTAYADSVK | GNVAGTFDL | -0.76 -0.69 -0.76 -1.07 -0.97 -0.81 | 0 of 18
GFDLDEYGIS | VIYADGMRTAYTDSVK | GNQAGTFDM | 0.20 0.24 0.10 0.02 -0.28 -0.01 | 0 of 18
GFDLNEYGIS | VIYADGVRTAYADKVK | GNVAGTFDL | 0.77 0.14 0.68 0.34 0.38 0.63 | 0 of 18
GFDLDEYGIS | VIYADGKRTAYSDSVK | GNVAGTFDL | -0.44 -0.47 -0.52 -0.30 -0.64 -0.20 | 0 of 18
GFDLDEYGIS | VIYADGMRTAYADSVK | GVNAGTFDV | -0.29 -0.02 0.46 -0.50 -0.13 -0.07 | 0 of 18
GFDLNEYGIS | VIYADGRRTAYSDSVK | GETAGTFDI | -0.50 -0.50 -0.58 -1.03 -0.71 -0.74 | 1 of 18 (1.17)
GFDLNEYGIS | VIYADGMRTAYSDNVK | GQVAGTFDI | -0.63 -0.79 -0.66 -0.59 -0.58 -0.75 | 0 of 18
GFDLDEYGIS | VIYADGRRTAYADSVK | GNTAGTFDL | -0.69 -0.68 -0.57 -0.59 -0.66 -0.33 | 0 of 18
GFDLNEYGIS | VIYADGKRTAYSDSVK | GSNAGTFDV | 0.18 -0.44 0.77 0.90 -0.04 0.93 | 0 of 18
GFDLNEYGIS | VIYADGKRTFYADSVK | GNVAGTFDL | -0.48 -0.52 -0.68 -0.74 -0.80 -0.47 | 0 of 18
GFDLDEYGIS | VIYADGMRTVYSDSVK | GENAGTFDV | -0.33 0.08 -0.20 -0.78 -0.08 -0.34 | 0 of 18
GFDLDEYGIS | VIYADGKRTAYADSVK | GENAGTFDM | 0.68 0.89 0.97 0.73 0.42 0.87 | 1 of 18 (2.76)
GFDLNEYGIS | VIYADGVRTAYTDSVK | GGNAGTFDV | -0.45 -0.50 -0.59 -0.78 -0.63 -0.46 | 0 of 18
GFDLNEYGIS | VIYADGMRTAYADSVK | GEQAGTFDL | -0.33 -0.26 -0.42 -0.50 -0.19 -0.50 | 0 of 18
GFDLNEYGIS | VIYADGRRTAYSDSVK | GNEAGTFDV | -0.20 -0.37 -0.07 -0.71 0.11 -0.25 | 0 of 18
GFDLNEYGIS | VIYADGRRTSYADSVK | GEVAGTFDV | 0.10 -0.45 -0.47 -0.48 0.06 0.11 | 0 of 18
GFDLNEYGIS | VIYADGMRSAYADSVK | GQNAGTFDV | -0.71 -0.65 -0.96 -1.03 -0.53 -0.61 | 0 of 18
GFDLNEYGIS | VIYADGMRTSYADSVK | GEVAGTFDQ | -0.55 -0.51 -0.58 -0.74 -0.48 -0.21 | 0 of 18
GFDLDEYGIS | VIYADGMRTFYADSVK | GENAGTFDM | -0.20 -0.17 -0.16 -0.56 -0.35 -0.44 | 0 of 18
GFDLNEYGIS | VIYADGKRQAYADSVK | GENAGTFDV | 0.03 0.06 -0.04 0.20 -0.33 0.12 | 1 of 18 (2.14)
GFDLNEYGIS | VIYADGQRTAYADSVK | GEQAGTFDV | -0.48 -0.41 -0.64 -0.40 -0.40 -0.31 | 1 of 18 (2.06)
GFDLNEYGIS | VIYADGRRTAYADSVK | GNNAGTFDQ | 0.17 -0.21 0.24 0.01 0.14 0.47 | 0 of 18
GFDLNEYGIS | VIYADGVRTAYADKVK | GNTAGTFDV | -0.77 -0.67 -1.53 -1.24 -1.37 -0.36 | 0 of 18
GFDLDEYGIS | VIYADGQRTAYSDSVK | GNQAGTFDL | -0.39 -0.66 -0.66 -0.41 -0.65 -0.18 | 1 of 18 (1.71)
GFDLNEYGIS | VIYADGMRTSYADSVK | GQNAGTFDI | 0.04 -0.61 -0.50 -0.03 -0.58 -0.37 | 0 of 18
GFDLDEYGIS | VIYADGQRTAYADSVK | GGNAGTFDV | -0.16 -0.46 -0.37 -0.56 -0.53 -0.44 | 1 of 18 (3.16)
GFDLNEYGIS | VIYADGRRTAYVDDVK | GENAGTFDV | 0.09 -0.46 -0.40 -0.30 -0.45 -0.02 | 0 of 18